# System: Cl. difficile
# Conditions: Table 10 second experiment, 24 h, 1 w/v-% carbohydrate
structure (smiles),measurement,value
"OC[C@H]1O[C@H](O)[C@H](O)[C@@H](O)[C@@H]1O [Glucose, Alpha-D-Glucose]",average area under the growth curve without medium,346

# From patent US20100092429A1, “Composition” (Danisco A/S, priority 2006, published 2010)
